Measured values published in ChEMBL document CHEMBL1121436, “2,4-Diamino-5-benzylpyrimidines as antibacterial agents. 4. 6-Substituted trimethoprim derivatives from phenolic Mannich intermediates. Application to the synthesis of trimethoprim and 3,5-dialkylbenzyl analogues” (J Med Chem, 1980).

Each compound was assayed against T1, Dihydrofolate reductase (Rattus norvegicus, UniProt Q920D2) (assay: Inhibition against dihydrofolate reductase enzyme of rat liver). Conditions: read-out: I50.
T1 sequence (Q920D2 whole entry): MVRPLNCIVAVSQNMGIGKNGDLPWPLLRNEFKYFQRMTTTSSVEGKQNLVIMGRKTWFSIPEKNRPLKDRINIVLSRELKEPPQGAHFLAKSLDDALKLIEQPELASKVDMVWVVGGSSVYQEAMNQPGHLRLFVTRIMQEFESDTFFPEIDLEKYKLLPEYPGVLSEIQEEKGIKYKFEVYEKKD

Row | IC50 [µM] | SMILES
1 | > 450 | COc1cc(Cc2c(N)nc(N)nc2SC)cc(OC)c1OC
2 | > 40 | CCc1cc(Cc2c(N)nc(N)nc2SC)cc(CC)c1OC

Row | SMILES | IC50 [µM]
3 | COc1cc(Cc2c(N)nc(N)nc2Oc2ccccc2)cc(OC)c1OC | > 45
